This note sets out measurements from ChEMBL document CHEMBL1157721, “Bisquaternary pyridinium oximes: Comparison of in vitro reactivation potency of compounds bearing aliphatic linkers and heteroaromatic linkers for paraoxon-inhibited electric eel and recombinant human acetylcholinesterase” (2010).

Sequences of proteins named here, by UniProt entry; tags and fusion partners are left off. A change or cut given only in a name is not applied to a line headed by its entry.
UniProt O42275: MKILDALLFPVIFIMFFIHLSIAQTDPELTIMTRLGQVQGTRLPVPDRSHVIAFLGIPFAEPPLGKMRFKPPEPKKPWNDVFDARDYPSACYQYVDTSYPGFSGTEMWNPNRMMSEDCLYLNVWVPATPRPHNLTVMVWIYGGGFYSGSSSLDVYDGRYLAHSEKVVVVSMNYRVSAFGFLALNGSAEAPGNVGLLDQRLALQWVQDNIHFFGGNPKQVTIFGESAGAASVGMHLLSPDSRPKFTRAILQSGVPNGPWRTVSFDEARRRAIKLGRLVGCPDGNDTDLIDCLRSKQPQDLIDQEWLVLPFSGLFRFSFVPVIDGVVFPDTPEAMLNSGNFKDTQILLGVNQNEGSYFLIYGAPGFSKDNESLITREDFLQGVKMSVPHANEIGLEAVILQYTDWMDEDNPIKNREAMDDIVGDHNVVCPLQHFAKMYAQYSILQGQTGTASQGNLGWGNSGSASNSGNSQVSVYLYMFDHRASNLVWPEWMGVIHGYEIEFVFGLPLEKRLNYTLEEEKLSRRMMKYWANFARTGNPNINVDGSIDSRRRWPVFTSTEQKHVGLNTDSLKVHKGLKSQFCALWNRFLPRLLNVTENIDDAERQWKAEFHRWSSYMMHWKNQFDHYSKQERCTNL
UniProt P22303: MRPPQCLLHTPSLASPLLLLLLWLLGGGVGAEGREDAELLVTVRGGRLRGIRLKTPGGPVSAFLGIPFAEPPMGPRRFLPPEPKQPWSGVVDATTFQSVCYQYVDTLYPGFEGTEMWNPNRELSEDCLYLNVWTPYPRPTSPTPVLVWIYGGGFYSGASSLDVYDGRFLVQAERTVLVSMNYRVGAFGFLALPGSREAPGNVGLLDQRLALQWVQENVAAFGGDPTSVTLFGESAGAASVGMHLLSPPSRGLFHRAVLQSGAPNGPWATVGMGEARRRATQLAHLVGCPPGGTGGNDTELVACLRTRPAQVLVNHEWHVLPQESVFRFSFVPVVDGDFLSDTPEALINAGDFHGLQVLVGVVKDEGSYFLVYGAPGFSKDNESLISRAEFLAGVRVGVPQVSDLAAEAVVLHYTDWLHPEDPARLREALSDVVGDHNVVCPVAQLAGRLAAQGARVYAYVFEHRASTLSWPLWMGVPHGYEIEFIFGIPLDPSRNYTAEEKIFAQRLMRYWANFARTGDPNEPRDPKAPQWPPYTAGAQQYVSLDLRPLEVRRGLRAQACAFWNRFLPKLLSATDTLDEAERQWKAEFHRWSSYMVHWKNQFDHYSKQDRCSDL

Molecules are shown by their SMILES.

The target of test [1] is Acetylcholinesterase (Electrophorus electricus) (UniProt O42275). Put plainly: Inhibition of electric eel AChE at 100 uM by Ellman's assay. (In general: Ellman's reagent forms a yellow product with free thiols.)
In test [2] the target is Acetylcholinesterase (Homo sapiens) (UniProt P22303). Put plainly: Inhibition of human recombinant AChE at 100 uM by Ellman's assay.
For test [3] the target is unchanged. Put plainly: Inhibition of human recombinant AChE at 10 uM by Ellman's assay.
For test [4], the target named is Acetylcholinesterase (Electrophorus electricus) (UniProt O42275). Put plainly: Reactivation of paraoxon-inhibited electric eel AChE assessed as enzyme activation at 10 uM by Ellman's assay. Also noted: scale not given: the % may be the effect or the level left.
The target is the same in test [5]. Put plainly: Reactivation of paraoxon-inhibited electric eel AChE assessed as enzyme activation at 100 uM by Ellman's assay. Also noted: scale not given: the % may be the effect or the level left.
Test [6] concerns the target Acetylcholinesterase (Homo sapiens) (UniProt P22303). Put plainly: Reactivation of paraoxon-inhibited human recombinant AChE assessed as enzyme activation at 10 uM by Ellman's assay. Set-up: scale not given: the % may be the effect or the level left.
Test [7] deals with Acetylcholinesterase (Electrophorus electricus) (UniProt O42275). Put plainly: Inhibition of electric eel AChE at 1 mM by Ellman's assay.
Test [8] has the same target. Put plainly: Inhibition of electric eel AChE at 10 uM by Ellman's assay.
The target is the same in test [9]. Put plainly: Reactivation of paraoxon-inhibited electric eel AChE assessed as enzyme activation at 1 mM by Ellman's assay. Also noted: scale not given: the % may be the effect or the level left.
For test [10], the target named is Acetylcholinesterase (Homo sapiens) (UniProt P22303). Put plainly: Reactivation of paraoxon-inhibited human recombinant AChE assessed as enzyme activation at 1 mM by Ellman's assay. Set-up: scale not given: the % may be the effect or the level left.
The target is the same in test [11]. Put plainly: Reactivation of paraoxon-inhibited human recombinant AChE assessed as enzyme activation at 100 uM by Ellman's assay. Also noted: scale not given: the % may be the effect or the level left.
Test [12] has the same target. Put plainly: Inhibition of human recombinant AChE at 1 mM by Ellman's assay.

By inhibition is commonly meant the percentage by which the read-out fell short of the control.

In the case of `O/N=C/c1cccc[n+]1-c1ccc(-[n+]2ccccc2/C=N/O)s1`, the inhibition came out at 0% in test [1]; 0% in [2]; 0% in [3]; 62% in test [7]; 0% in [8]; 42% in [12]. Besides, the Activity in test [4] is 59%; in test [5], 42%; in test [6], 5%; in test [9], 2%; in test [10], 0%; in [11], 14%.
